pKi: −log10 of the molar value.
Molecular target: Sodium-dependent dopamine transporter (Rattus norvegicus, UniProt P23977)
Test: Displacement of [3H]GBR-12935 from dopamine transporter of rat caudate-putamen
Format: tissue-based

Chains of the proteins cited; added tags and fusions are not shown.
UniProt P23977, whole entry: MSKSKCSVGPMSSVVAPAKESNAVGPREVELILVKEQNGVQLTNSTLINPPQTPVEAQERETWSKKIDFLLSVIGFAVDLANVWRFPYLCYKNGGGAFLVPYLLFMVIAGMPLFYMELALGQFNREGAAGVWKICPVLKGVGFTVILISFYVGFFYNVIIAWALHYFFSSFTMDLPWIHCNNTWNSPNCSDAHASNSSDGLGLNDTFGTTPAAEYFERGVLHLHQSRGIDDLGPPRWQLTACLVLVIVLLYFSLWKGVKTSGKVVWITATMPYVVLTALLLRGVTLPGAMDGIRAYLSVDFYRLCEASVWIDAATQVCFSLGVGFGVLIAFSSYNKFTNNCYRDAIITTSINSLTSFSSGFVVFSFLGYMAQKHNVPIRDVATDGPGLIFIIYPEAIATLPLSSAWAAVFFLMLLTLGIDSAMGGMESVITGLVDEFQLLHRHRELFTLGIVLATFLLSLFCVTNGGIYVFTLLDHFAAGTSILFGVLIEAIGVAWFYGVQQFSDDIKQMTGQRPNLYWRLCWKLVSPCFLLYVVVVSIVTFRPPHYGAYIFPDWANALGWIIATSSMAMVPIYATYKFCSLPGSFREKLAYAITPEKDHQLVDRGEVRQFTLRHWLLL

Q: CN(C)CCCC1(c2ccc(F)cc2)OCc2cc(C#N)ccc21 (stereo unspecified) [CITALOPRAM] was tested. Which pKi did it give?
A: The pKi was 4.78.
